Experimental data as given in patent US20120107317A1 (UNIVERSITY OF HONG KONG, published 2012).

Chains of the proteins cited; added tags and fusions are not shown.
UniProt P51617, whole entry: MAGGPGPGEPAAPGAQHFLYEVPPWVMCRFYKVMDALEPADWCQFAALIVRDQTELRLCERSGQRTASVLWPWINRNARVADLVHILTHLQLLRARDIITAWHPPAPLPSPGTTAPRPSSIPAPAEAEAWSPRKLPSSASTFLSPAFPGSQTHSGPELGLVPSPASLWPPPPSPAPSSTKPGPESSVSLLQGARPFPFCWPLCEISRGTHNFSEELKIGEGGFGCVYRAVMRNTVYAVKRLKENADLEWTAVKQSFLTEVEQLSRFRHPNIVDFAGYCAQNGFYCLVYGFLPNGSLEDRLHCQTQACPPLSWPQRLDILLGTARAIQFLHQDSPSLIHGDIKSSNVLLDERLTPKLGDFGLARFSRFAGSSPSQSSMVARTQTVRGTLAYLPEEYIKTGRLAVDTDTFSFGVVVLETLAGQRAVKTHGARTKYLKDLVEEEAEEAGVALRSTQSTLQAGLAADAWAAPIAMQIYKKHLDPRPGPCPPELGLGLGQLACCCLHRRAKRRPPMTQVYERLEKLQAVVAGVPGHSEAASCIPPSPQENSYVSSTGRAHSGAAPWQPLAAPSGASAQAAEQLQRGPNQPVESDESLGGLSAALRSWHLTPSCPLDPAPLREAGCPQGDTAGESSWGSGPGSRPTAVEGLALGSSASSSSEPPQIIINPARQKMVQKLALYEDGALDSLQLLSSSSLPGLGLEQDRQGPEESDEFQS

Molecular target: T1, IRAK1 (endogenous protein of primary human blood macrophages) (human, UniProt P51617)
T1 construct: Endogenous protein in PBMac lysates
Experiment: co-immunoprecipitation with anti-c-Myc antibody from PBMac lysates, Western blot
Method: Total proteins (200 μg) were extracted from PBMac by IP buffer (10 mM Tris [pH7.4], 1 mM EDTA, 1 mM EGTA, 150 mM NaCl, 0.5% NP-40, 1% Triton X-100, inhibitor cocktails of proteases and phosphatases), and were incubated with 1μg primary antibodies against IκBα(Santa Cruz Biotechnology, USA) or c-Myc (Millipore, USA) for 2 hours at 4° C. and then with 20 μl Protein A/G agarose beads (Santa Cruz Biotechnology, USA) for 1 hour at 4° C. The immunoprecipitates were then washed 6 times with IP buffer. Cytoplasmic and nuclear proteins were extracted from PBMac as previously described (Cheung et al., 2005; Lee et al., 2005). Immunoprecipitated, cytoplasmic (50 μg) or nuclear proteins (10 μg) were analyzed by Western Blot as in our previous reports (Cheung et al., 2005; Lee et al., 2005).

B1: c-Myc (endogenous protein of primary human blood macrophages) (other)
chain: MPLNVSFTNRNYDLDYDSVQPYFYCDEEENFYQQQQQSELQPPAPSEDIWKKFELLPTPPLSPSRRSGLCSPSYVAVTPFSLRGDNDGGGGSFSTADQLEMVTELLGGDMVNQSFICDPDDETFIKNIIIQDCMWSGFSAAAKLVSEKLASYQAARKDSGSPNPARGHSVCSTSSLYLQDLSAAASECIDPSVVFPYPLNDSSSPKSCASQDSSAFSPSSDSLLSSTESSPQGSPEPLVLHEETPPTTSSDSEEEQEDEEEIDVVSVEKRQAPGKRSESGSPSAGGHSKPPHSPLVLKRCHVSTHQHNYAAPPSTRKDYPAAKRVKLDSVRVLRQISNNRKCTSPRSSDTEENVKRRTHNVLERQRRNELKRSFFALRDQIPELENNEKAPKVVILKKATAYILSVQAEEQKLISEEDLLRKRREQLKHKLEQLRNSCA
notes: Endogenous c-Myc in lysates of primary human blood macrophages (PBMac), with or without BCG treatment; also called cytoplasmic c-Myc
B1: no binding.
